Several values for one entry are separate records, joined by “and”; a condition that tells them apart may be missing. Equal entries are not always repeated.

The IC50 is the concentration that inhibits the measured activity by half.

The experiment concerns MCF-7/NOD1 cells, GM-Tri-DAP induced IL-8 secretion. As to the kind of experiment: inhibition of NOD1-driven IL-8 release, SAR follow-up, MCF-7/NOD1 cells, GM-Tri-DAP stimulus (AID 2250).

Regarding `Cc1ccc(S(=O)(=O)n2c(N)nc3ccccc32)cc1`, the IC50 was 620 nM and 810 nM.

The values are drawn from PubChem BioAssay AID2250 (Sanford-Burnham Center for Chemical Genomics, 2010).
